Columns and labels:
Assay type in all cases: cell-based
[1] = test system: BaF3; assay: PROTAC activity at CRBN/KIF5B-RET (unknown origin) expressed in mouse BaF3 cells assessed as induction of RET degradation by measuring fold change at 100 nM measured after 6 hrs by Western blot analysis; conditions: Homo sapiens
[2] = test system: BaF3; assay: PROTAC activity at CRBN/KIF5B-RET (unknown origin) expressed in mouse BaF3 cells assessed as induction of RET degradation by measuring fold change at 10 nM measured after 6 hrs by Western blot analysis; conditions: Homo sapiens
[3] = test system: BaF3; assay: PROTAC activity at CRBN/KIF5B-RET (unknown origin) expressed in mouse BaF3 cells assessed as induction of RET degradation by measuring fold change at 1000 nM measured after 6 hrs by Western blot analysis

## COc1ccc(CN2C3CC2CN(c2ccc(-c4cc(-c5cnn(C6CCN(CCCCCC#Cc7cccc8c7CN(C7CCC(=O)N(C)C7=O)C8=O)CC6)c5)cn5ncc(C#N)c45)cn2)C3)cn1 (stereo not drawn)
[1]
  fold change (FC): 1
[2]
  fold change (FC): 1
[3]
  fold change (FC): 0.9
